Measured values reported in PMC9144537, “Pharmacokinetics, Prostate Distribution and Metabolic Characteristics of Four Representative Flavones after Oral Administration of the Aerial Part of Glycyrrhiza uralensis in Rats” (Molecules, 2022).

Test: Qualitative detection of prototype flavones and metabolites in rat plasma, prostate, urine and feces by UPLC-Q-Exactive Orbitrap-MS after oral aerial part of G. uralensis
Details: rats, single oral 1 g/kg extract, + not defined (detected)

methyl-daidzein-glucoside [1-M2]
Distribution of four representative flavonoids and metabolites: Plasma: detected
